From US9611277B2 (Janssen Pharmaceutica NV, priority 2013, dated 2017) come the findings set out here.

Assay [1] has as its target rat orexin 1 receptor (Rattus norvegicus, UniProt P56718). The experiment in a line: Rat orexin 1 receptor radioligand binding. Particulars: averages of 2-20 runs, read-out: rOX1 Ki. The method, then: Data are analyzed using pc-Sandy macro and graphed on Graphpad Prism 5. For analysis, each concentration point is averaged from triplicate values and the averaged values are plotted on Graphpad Prism. The IC50 was determined by applying the following equation (GraphPad Prism 5.0, SanDiego) for one site competition where X=log (concentration) and Y=specific binding. Top denotes the total [^3H]-(1-(5-(2-fluoro-phenyl)-2-methyl-thiazol-4-yl)-1-((S)-2-(5-phenyl-(1,3,4)oxadiazol-2-ylmethyl)-pyrrolidin-1-yl)-methanone) binding, bottom denotes the nonspecific [^3H]-(1-(5-(2-fluoro-phenyl)-2-methyl-thiazol-4-yl)-1-((S)-2-(5-phenyl-(1,3,4)oxadiazol-2-ylmethyl)-pyrrolidin-1-yl)-methanone) binding. Graphpad Prism calculates Ki value from IC50 and the pre-determined Kd values for [^3H]-(1-(5-(2-fluoro-phenyl)-2-methyl-thiazol-4-yl)-1-((S)-2-(5-phenyl-(1,3,4)oxadiazol-2-ylmethyl)-pyrrolidin-1-yl)-methanone) and [3H]-EMPA. The Ki for each compound is then uploaded into 3DX. Each run comprises individual compounds in triplicate. […]
After centrifugation (2K×G, 5 min at 4° C.), the supernatant was aspirated and the pellets frozen and stored at −80° C. […] Total and nonspecific binding was determined in the absence and presence of 10 μM almorexant. […] Plates were dried in 55° C. oven for 60 min, scintillation fluid was added, and the radioactivity was counted on a Topcount (Packard).

Assay [2] addresses human orexin 1 receptor (Homo sapiens, UniProt O43613). Nature of the assay: Human orexin 1 receptor radioligand binding. The conditions noted are these: read-out: hOX1 Ki. The method, then: Data are analyzed using pc-Sandy macro and graphed on Graphpad Prism 5. For analysis, each concentration point is averaged from triplicate values and the averaged values are plotted on Graphpad Prism. The IC50 was determined by applying the following equation (GraphPad Prism 5.0, SanDiego) for one site competition where X=log (concentration) and Y=specific binding. Top denotes the total [^3H]-(1-(5-(2-fluoro-phenyl)-2-methyl-thiazol-4-yl)-1-((S)-2-(5-phenyl-(1,3,4)oxadiazol-2-ylmethyl)-pyrrolidin-1-yl)-methanone) binding, bottom denotes the nonspecific [^3H]-(1-(5-(2-fluoro-phenyl)-2-methyl-thiazol-4-yl)-1-((S)-2-(5-phenyl-(1,3,4)oxadiazol-2-ylmethyl)-pyrrolidin-1-yl)-methanone) binding. Graphpad Prism calculates Ki value from IC50 and the pre-determined Kd values for [^3H]-(1-(5-(2-fluoro-phenyl)-2-methyl-thiazol-4-yl)-1-((S)-2-(5-phenyl-(1,3,4)oxadiazol-2-ylmethyl)-pyrrolidin-1-yl)-methanone) and [3H]-EMPA. The Ki for each compound is then uploaded into 3DX. Each run comprises individual compounds in triplicate. The data in Table 1 and Table 2 represent averages from between 2-20 runs
Rat and Human Orexin 1 Receptor Radioligand Binding Studies
After centrifugation (2K×G, 5 min at 4° C.), the supernatant was aspirated and the pellets frozen and stored at −80° C. […] Each cell pellet from a 15 cm plate was resuspended in 10 mL, stored on ice, and homogenized for 45 sec prior to addition to the reactions. […] The final concentration of DMSO in the reactions is equal to or less than 0.1%. Total and nonspecific binding was determined in the absence and presence of 10 μM almorexant. The total volume of each reaction is 200 μL (20 μL of diluted compounds, 80 μL of [^3H]-(1-(5-(2-fluoro-phenyl)-2-methyl-thiazol-4-yl)-1-((S)-2-(5-phenyl-(1,3,4)oxadiazol-2-ylmethyl)-pyrrolidin-1-yl)-methanone) diluted in PBS and 100 μL of the cell suspension). […] The plates were washed 3 times by aspirating 30 ml PBS through the plates. Plates were dried in 55° C. oven for 60 min, scintillation fluid was added, and the radioactivity was counted on a Topcount (Packard).

The mark [3] stands for this setting: human orexin 1 receptor, averages of 2-20 runs.

SMILES strings stand for the structures. Read-outs that look alike come from different tables or passages of the source.

Broadly, the Ki is a measure of affinity in units of concentration, obtained from inhibition or displacement. Consider `O=C(c1cccc(F)c1-c1ncccn1)N1C[C@H]2C[C@@H](Oc3ccc(C(F)(F)F)cn3)[C@@H]1C2` [Example 27, (3-fluoro-2-(pyrimidin-2-yl)phenyl)((1S,4R,6R)-6-((5-(trifluoromethyl)pyridin-2-yl)oxy)-2-azabicyclo[2.2.1]heptan-2-yl)methanone], for which the inhibitory constant (Ki) in assay [1] was 6 nM.
In the case of `O=C(c1cccc(F)c1-n1nccn1)N1CC2CCC1C(Oc1ccc(C(F)(F)F)cn1)C2` (racemic) [Example 249, (R/S)-(3-fluoro-2-(2H-1,2,3-triazol-2-yl)phenyl)(6-((5-(trifluoromethyl)pyridin-2-yl)oxy)-2-azabicyclo[2.2.2]octan-2-yl)methanone], the Ki in assay [2] (setting [3]) amounted to 15 nM.
Same read-out and setting: as for `O=C(c1cccc(F)c1-c1ncccn1)N1CC2CCC1C(Oc1ccc(C(F)(F)F)cn1)C2` (racemic) [Example 248, (R/S)-(3-fluoro-2-(pyrimidin-2-yl)phenyl)(6-((5-(trifluoromethyl)pyridin-2-yl)oxy)-2-azabicyclo[2.2.2]octan-2-yl)methanone], the figure is 14 nM.
For `O=C(c1cccc(F)c1-c1ncccn1)N1C[C@@H]2CC[C@H]1[C@H](Oc1ccc(C(F)(F)F)cn1)C2` [Example 73, (3-fluoro-2-(pyrimidin-2-yl)phenyl)((1S,4R,6R)-6-((5-(trifluoromethyl)pyridin-2-yl)oxy)-2-azabicyclo[2.2.2]octan-2-yl)methanone], in assay [2], the Ki was 11 nM.
On to `O=C(c1cccc(F)c1-n1nccn1)N1CC2CCC1C(Nc1cnc(C(F)(F)F)cn1)C2` (racemic) [Example 255, (R/S)-(3-fluoro-2-(2H-1,2,3-triazol-2-yl)phenyl)(6-((5-(trifluoromethyl)pyrazin-2-yl)amino)-2-azabicyclo[2.2.2]octan-2-yl)methanone], for which the Ki in assay [1] turned out to be 12 nM.
